Experiment: Inhibition of Escherichia coli BL21-A1 MurD

IC50: 105 µM
SMILES: N#Cc1ccc(COc2ccc3cc(S(=O)(=O)N[C@H](CCC(=O)O)C(=O)O)ccc3c2)cc1

Source: ChEMBL document CHEMBL1138473, “NMR and molecular dynamics study of the binding mode of naphthalene-N-sulfonyl-D-glutamic acid derivatives: novel MurD ligase inhibitors” (J Med Chem, 2009)
